# Apparent affinities of Ab-14 variants for a coronavirus HR2 peptide

Data: MIT Lincoln Laboratory AlphaSeq set, Li et al. 2023, doi:10.1038/s41467-023-39022-2, as distributed in FLAb.

Target: peptide PDVDLGDISGINAS, taken from heptad repeat 2 (HR2) of SARS-CoV-2 spike.

Each scFv is VH, a (GGGGS)3 linker, VL, as in the parent Ab-14, and differs from it in the CDRs of the light chain only.
VH: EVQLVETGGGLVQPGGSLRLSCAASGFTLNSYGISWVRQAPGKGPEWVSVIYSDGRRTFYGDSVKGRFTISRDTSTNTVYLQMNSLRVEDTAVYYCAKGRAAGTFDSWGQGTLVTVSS
VL: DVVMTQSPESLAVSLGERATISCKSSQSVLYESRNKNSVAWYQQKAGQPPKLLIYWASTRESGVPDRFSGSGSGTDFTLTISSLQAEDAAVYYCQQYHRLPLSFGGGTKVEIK

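The starting antibody came from a phage panning campaign against this peptide. The variants were designed computationally from a first round of random CDR variants and then made and measured. Several design methods are mixed in this list. The assay is AlphaSeq: two haploid yeast populations carry antibody and antigen on their surface. The frequency of each diploid, read from paired DNA barcodes, reflects how well the two displayed proteins bind. The ratio of observed to expected reads was calibrated, replicate by replicate, on BCL2-family standards whose Kd was known from biolayer interferometry. Mating was done six times.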

The parent's light chain CDRs are KSSQSVLYESRNKNSVA, WASTRES, QQYHRLPLS; each variant's own CDRs replace them letter for letter.
Numbers give log10(Kd / nM), so 0 is 1 nM and 3 is 1 µM. Smaller is tighter.
The mean shown is taken over the replicates in which the pair was detected.
Where no diploid with the target was found in any replicate, the entry reads "not detected": below detection, most likely a poor binder, though not proof of it.
The range of this assay differs from that of the first round, and the authors advise against merging the two.

CDR-L1,CDR-L2,CDR-L3,"mean, log10 nM",seen in
KLSQSVLMESRNCNSVA,DASTRES,QQYHRLPLS,0.37,6/6
KLSGSKGYESRNPNSVA,NASTREL,QQYHRLPLS,-0.62,6/6
KLVGSTLQESRQKNSVA,WASTRES,QQYHRLPLS,2.31,4/6
KIGMTLNQLLEKKNNVA,DLVLREN,QQYHRLPLS,0.46,6/6
KSSGSVMMLSRNPNSVA,EATTRES,QQYHRLPLS,-0.10,6/6
KIEWYPMENRLTISAIA,EASTIYQ,QQYMHLPLS,not detected,0/6
KLSQSVDYESRNKNAVA,NASTRES,QQYHRLPLS,0.21,6/6
KSSISVLYESRNKNSVA,EASTRES,QQYHRPPLS,1.11,6/6
NLGGEDAQDTRGMAAVA,DVSEVGD,QHYSRLPLS,1.19,6/6
KRSQSVLYESRNKNSVA,WANTRES,QQYHRLPLS,1.86,1/6
KVSEFMRGLMKKSDSIA,DNETRGA,QQYDRLPLS,1.40,6/6
KQQQSMLYESRNSNSVA,NASTREE,QQYHRLPLM,-0.29,6/6
KLRQSSHIESFNKNNVA,EMTTRES,QSYDRLPLS,1.50,6/6
TLSQSWGMESHHRNNVA,QESTREK,QQYFRLPIS,0.70,6/6
KSSQSVFYDSRNKNSVA,WASTRIS,QQYHRLPLS,1.89,2/6
KVSQSVLYESRNKNSVA,NASTRSS,QQYHRLPLS,0.12,6/6
KLVQSELYESRNKNSVA,NASQRES,QQYHRLPLS,-0.14,6/6
HQSGSVLYESRNSNSVA,NGSTREV,QQYHRLPLS,-0.01,6/6
KSQQSWLYESRNFNSVA,HASTRED,QQYHRLPLS,0.22,6/6
KIGATLNTLYEKQNNVA,DLVEREN,QQYHRLPLS,0.31,6/6
KVSQSDLYEDRNKNSVA,NASQRES,QQYHRLPLS,-0.67,6/6
QMTENDHGHQAGVGSIA,DATETME,QQYMHLPLS,0.14,6/6
KVSQSVLFESRNKNSVA,DASTRCS,QQYHRLPLE,-0.16,6/6
KLAMALSVEFGTYHGVA,DADHRMH,QQYNRLPLS,0.35,6/6
KLYMTVGFEQRNKSRVA,DNNTRES,QQYDRLPLS,2.50,1/6
IISGSYLMESRNKNSVA,NAETREY,QHYDRLPLS,2.41,3/6
MISQLQNMGQFAINSVA,QASERSE,QQYDRLPLI,0.97,6/6
MISQLHNMGTFAINSVA,QASIRNA,QQYDRLPLI,not detected,0/6
KLPQSVPYEERCFNSVA,HASQRES,QQYHRLPLS,0.93,6/6
KSSQSVANESRNANSVA,DASTRES,QQYHRLPLS,1.15,6/6
KSSQSVLYENRNKNSVA,WASKRES,QQYHRLPCS,2.03,3/6
MISQLYNMGTFAINSVA,QASLRCN,QQYDRLPLI,not detected,0/6
KVSQSNLYEQRNANNVA,NASLRES,QQYHRLPLS,-0.20,6/6
QLFFNDFQYDIESQNIA,QASLRYV,QQYARLPLV,1.36,6/6
NMTGIKEMQSNNINNIA,ENNERFQ,QQYFQLPLS,0.61,6/6
KLWLAMDMFQGEASAVA,DQQLTRD,QQYARLPLS,2.66,1/6
TISQITSLFSQTINNVA,EVSTREQ,QQYDRLPLA,0.95,5/6
KVMQSMWYESRNQNSVA,HASQREQ,QQYHRLPLQ,0.47,6/6
KVSMLHDYESRNKNSVA,QASTRES,QDYHRLPLS,0.09,6/6
KISQGVLYESRNKNSVA,WASTRES,QQYHVLPLS,1.83,4/6
KLSMTHGMELKNRNSVA,ELVTRMS,QQYNRLPLS,1.61,5/6
KFSQSVLYESRTSNRVA,NGSTRES,QQYHRLPLS,0.23,6/6
KLSFSWLYESRNKNSVA,NASTRES,QQYHRLPLS,-0.02,6/6
KSRQSLEYESRNKNSVA,WASTRES,QQYHRLPLS,1.75,3/6
KLRQETLYESRNPNSVA,GASTRES,QQYHRLPLS,-0.10,6/6
KLSQSVLYESRNKNSVA,EASTRMM,QQYHRLPLS,-0.31,6/6
ILSDSVLTESRNKNSVA,DNSTRES,QCYDRLPLS,not detected,0/6
KQSQSELFESRNKNSVA,DASTRES,QQYHRLPLS,-0.12,6/6
TLSQTMDMTSRNVNSVA,DLTTRGN,QQYHRLPLS,0.20,6/6
QIQMNEITLMENINSIA,NSEVIVQ,QSYFRLPLS,1.47,4/6
KLSQSTLYDSRNKNSVA,WASTRES,QQYKRLPLS,0.25,6/6
KSSQSVLYESNNKNSVA,SASTRES,QQYHRLPLS,0.60,6/6
KEQNDSLFMGQYDNNIA,NTSLRTE,QQYYQLPLT,0.07,5/6
KLLSLSLHQTGKLNSVA,DAEITQI,QQYMSLPLM,1.02,4/6

Picked from the list: the 4 lowest averages where every replicate gave a value.

CDR-L1,CDR-L2,CDR-L3,"mean, log10 nM",seen in
KVSQSDLYEDRNKNSVA,NASQRES,QQYHRLPLS,-0.67,6/6
KLSGSKGYESRNPNSVA,NASTREL,QQYHRLPLS,-0.62,6/6
KLSQSVLYESRNKNSVA,EASTRMM,QQYHRLPLS,-0.31,6/6
KQQQSMLYESRNSNSVA,NASTREE,QQYHRLPLM,-0.29,6/6

The authors averaged sequences with at least three values out of six and counted those with two or fewer as poor binders.
The parent sequence was in this pool as ten entries: three were never detected, three once, and four in most replicates, with averages from 0.34 to 2.37.
Three control strains display no target. For all light chain designs, 4% of the pairings with them gave a signal, with a median of 2.64 and one signal in twenty below 1.59, so weak values seen in few replicates may be background.